# Reference: US5045530A, “Pharmaceutical preparations” (priority 1986, dated 1991)
# Test: hydrodynamic (Stokes) radius / size of micelles and vesicles, inelastic light scattering
# Assay type: physicochemical
substance,measurement,setting,value
"Benzyldimethyl[2-[2-(p-1,1,3,3,tetramethylbutyl-p,p'-dimethyl-phenoxy)ethoxy]ethyl]ammonium",<RH> hydrodynamic radius,"Table 3, counter ion Y- = NO3-",150 Å
same,<RH> hydrodynamic radius,"Table 3, counter ion Y- = Salicylate",3000 Å
